{
  "source": "ChEMBL document CHEMBL1123227",
  "about": "“Tricyclic epines. Novel (E)- and (Z)-11H-dibenz[b,e]azepines as potential central nervous system agents. Variation of the basic side chain” (1986)",
  "species_on_record": "Mus musculus",
  "assay": "Sedative activity relative with respect to clozapine.",
  "format": "functional",
  "data": [
    {"smiles": "CCN1CCN(C2=Nc3ccccc3/C(=C\\C#N)c3ccccc32)CC1", "values": [
      {"measurement": "Relative activity", "value": "<0.04"}
    ]},
    {"smiles": "Cc1ccc2c(c1)N=C(N1CCN(C)CC1)c1ccccc1/C2=C/C#N", "values": [
      {"measurement": "Relative activity", "value": 0.14}
    ]}
  ]
}
